Reference: patent US20120082647A1, “INTERFERON-BETA FOR USE AS MONOTHERAPY OR IN COMBINATION WITH OTHER CANCER THERAPIES” (priority 2010, published 2012)

B1: human IFN-beta-1a: human interferon-beta glycosylated at residue 80 (Asn 80), derived via recombinant DNA technologies (protein, UniProt P01574 22-187, looked up)
Interferon beta: MSYNLLGFLQRSSNFQCQKLLWQLNGRLEYCLKDRMNFDIPEEIKQLQQFQKEDAALTIYEMLQNIFAIFRQDSSSTGWNETIVENLLANVYHQINHLKTVLEEKLEKEDFTRGKLMSSLHLKRYYGRILHYLKAKEYSHCAWTIVRVEILRNFYFINRLTGYLRN

Assays:
[1] = test system: SW620 colon carcinoma cells; assay: SW-620 colon carcinoma tumor volume in nude mice; format: in vivo; settings: 0.4, 0.8 and 1.6 mg/kg subcutaneously BIW for 4 weeks, FIG. 10
[2] = test system: SK-MEL-1 human melanoma cells; assay: Formation of tumor induced blood vessels in nude mice carrying SK-MEL-1 tumors; format: in vivo
[3] = test system: A375 human melanoma cells; assay: A-375 melanoma tumor volume in nude mice; format: in vivo
[4] = test system: SN12C renal carcinoma cells; assay: SN12C renal carcinoma tumor volume in SCID mice; format: in vivo; settings: dosed at 0.8 mg/kg and 1.6 mg/kg
WM-266-4 melanoma cells = assay: WM-266-4 melanoma tumor volume in nude mice; format: in vivo
[5] = Half-life of pegylated IFN-beta-1a in nude mice; format: in vivo
[6] = test system: MDA-MB-231 breast carcinoma cells; assay: MDA-MB-231 breast carcinoma tumor volume in SCID mice; format: in vivo; settings: paclitaxel 25 mg/kg I.P. q4d x 3, pegylated interferon beta 1a 0.4 to 1.6 mg/kg SC BIW
Protocol: 8-10 week old SCID mice from Charles River Labs were inoculated subcutaneously with 5×10^6 MDA-MB-231 breast carcinoma cells with 50% matrigel in the flank region. When the average tumor volumes reached approximately 200 mm^3 the tumor-bearing mice were randomized to treatment groups. Pegylated IFN-1a was provided in 20 mM acetic acid/sodium acetate at a pH of 4.8 and 150 mM arginine/HCl (4.8A buffer). Paclitaxel was provided in a Cremophor Ethanol Saline mixture (CES buffer).

[7] = test system: human MDA-MB-468 breast carcinoma tumors; assay: MDA-MB-468 breast carcinoma tumor volume in nude mice; format: in vivo; settings: MDA-MB-468 tumors in nude mice; versus IFN-beta-1a or vehicle control; FIG. 13C
murine (L929) cells = assay: Activity of human IFN-beta-1a on murine cells (species specificity); format: cell-based; settings: at concentrations 10-fold greater than required for full activity of murine IFN-beta

| Molecule | inhibition of tumor growth, dose response [1] | formation of tumor induced blood vessels, multiple dose study ([2]; 10 μg (1 MU) once on day 1 versus 5 μg (1 MU) IFN-beta-1a daily on days 1-9, FIG. 1B) | formation of tumor induced blood vessels, single dose study ([2]; 10 μg (1 MU) once on day 1 versus 5 μg (1 MU) IFN-beta-1a once on day 1, FIG. 1A) | formation of tumor induced blood vessels ([2]; SK-MEL-1 tumors, vessels entering tumor periphery counted day 10, versus control and IFN-beta-1a) | tumor growth inhibition, 1.6 mg/kg versus 0.4 or 0.8 mg/kg ([3]; 1.6 mg/kg (data not shown)) | tumor growth inhibition, dose response ([3]; 0.1, 0.2, 0.4, 0.8 or 1.6 mg/kg S.C. BIW x 4 weeks (data not shown)) | tumor growth inhibition, 0.4 versus 0.8 mg/kg ([3]; 0.4 or 0.8 mg/kg (data not shown)) | tumor growth inhibition compared to its vehicle [4] | tumor inhibition/regression on drug and upon tumor regrowth (WM-266-4 melanoma cells; WM-266-4 (200 mm3), 0.4, 0.8 or 1.6 mg/kg QW, BIW or TIW for 4 weeks, FIGS. 17A-C) | tumor inhibition/regression on drug and upon tumor regrowth (WM-266-4 melanoma cells; WM-266-4 (400 cubic mm), 0.1, 0.2, 0.4, 0.8 mg/kg SC BIW for 4 weeks, FIG. 16) | effect on large tumors (WM-266-4 melanoma cells; WM-266-4 large tumors (2000-2400 cubic mm), 0.8 or 1.6 mg/kg BIWX4 from day 46, FIG. 18) | half-life [5] | inhibition of tumor growth, single agent versus vehicle controls [6] | inhibition of tumor growth [7] | activity on murine (L929) cells (murine (L929) cells) |
| --- | --- | --- | --- | --- | --- | --- | --- | --- | --- | --- | --- | --- | --- | --- | --- |
| pegylated IFN-beta-1a: Interferon beta-1a modified at the N-terminal α-amino group with a single, linear 20 kDa mPEG-O-2-methylpropionaldehyde group | dose dependent | comparable (slightly superior) to IFN-beta-1a given daily on days 1-9 | more effective than IFN-beta-1a given once on day 1 | significantly more effective at reducing formation of tumor induced blood vessels | even larger tumor growth inhibition | tumor growth inhibition increases in mice as the dosages increase | almost similar | statistically significant tumor growth inhibition in a dose dependent manner | dose-dependent tumor inhibition/regression | dose-dependent tumor inhibition/regression | Tumor regression | approximately 10 hours | greater inhibition of tumor growth compared to mice treated with either vehicle controls | greater inhibition of tumor growth compared to mice treated with IFN-beta-1a or vehicle control | – |
| B1 | – | – | – | – | – | – | – | – | – | – | – | – | – | – | not active |
